Source: patent US20210186970A1, “SELECTIVE CALCIUM CHANNEL ANTAGONISTS” (Northwestern University, priority 2011, published 2021)

Chains of the proteins cited; added tags and fusions are not shown. Residues count along the entry.
UniProt P27732, whole entry: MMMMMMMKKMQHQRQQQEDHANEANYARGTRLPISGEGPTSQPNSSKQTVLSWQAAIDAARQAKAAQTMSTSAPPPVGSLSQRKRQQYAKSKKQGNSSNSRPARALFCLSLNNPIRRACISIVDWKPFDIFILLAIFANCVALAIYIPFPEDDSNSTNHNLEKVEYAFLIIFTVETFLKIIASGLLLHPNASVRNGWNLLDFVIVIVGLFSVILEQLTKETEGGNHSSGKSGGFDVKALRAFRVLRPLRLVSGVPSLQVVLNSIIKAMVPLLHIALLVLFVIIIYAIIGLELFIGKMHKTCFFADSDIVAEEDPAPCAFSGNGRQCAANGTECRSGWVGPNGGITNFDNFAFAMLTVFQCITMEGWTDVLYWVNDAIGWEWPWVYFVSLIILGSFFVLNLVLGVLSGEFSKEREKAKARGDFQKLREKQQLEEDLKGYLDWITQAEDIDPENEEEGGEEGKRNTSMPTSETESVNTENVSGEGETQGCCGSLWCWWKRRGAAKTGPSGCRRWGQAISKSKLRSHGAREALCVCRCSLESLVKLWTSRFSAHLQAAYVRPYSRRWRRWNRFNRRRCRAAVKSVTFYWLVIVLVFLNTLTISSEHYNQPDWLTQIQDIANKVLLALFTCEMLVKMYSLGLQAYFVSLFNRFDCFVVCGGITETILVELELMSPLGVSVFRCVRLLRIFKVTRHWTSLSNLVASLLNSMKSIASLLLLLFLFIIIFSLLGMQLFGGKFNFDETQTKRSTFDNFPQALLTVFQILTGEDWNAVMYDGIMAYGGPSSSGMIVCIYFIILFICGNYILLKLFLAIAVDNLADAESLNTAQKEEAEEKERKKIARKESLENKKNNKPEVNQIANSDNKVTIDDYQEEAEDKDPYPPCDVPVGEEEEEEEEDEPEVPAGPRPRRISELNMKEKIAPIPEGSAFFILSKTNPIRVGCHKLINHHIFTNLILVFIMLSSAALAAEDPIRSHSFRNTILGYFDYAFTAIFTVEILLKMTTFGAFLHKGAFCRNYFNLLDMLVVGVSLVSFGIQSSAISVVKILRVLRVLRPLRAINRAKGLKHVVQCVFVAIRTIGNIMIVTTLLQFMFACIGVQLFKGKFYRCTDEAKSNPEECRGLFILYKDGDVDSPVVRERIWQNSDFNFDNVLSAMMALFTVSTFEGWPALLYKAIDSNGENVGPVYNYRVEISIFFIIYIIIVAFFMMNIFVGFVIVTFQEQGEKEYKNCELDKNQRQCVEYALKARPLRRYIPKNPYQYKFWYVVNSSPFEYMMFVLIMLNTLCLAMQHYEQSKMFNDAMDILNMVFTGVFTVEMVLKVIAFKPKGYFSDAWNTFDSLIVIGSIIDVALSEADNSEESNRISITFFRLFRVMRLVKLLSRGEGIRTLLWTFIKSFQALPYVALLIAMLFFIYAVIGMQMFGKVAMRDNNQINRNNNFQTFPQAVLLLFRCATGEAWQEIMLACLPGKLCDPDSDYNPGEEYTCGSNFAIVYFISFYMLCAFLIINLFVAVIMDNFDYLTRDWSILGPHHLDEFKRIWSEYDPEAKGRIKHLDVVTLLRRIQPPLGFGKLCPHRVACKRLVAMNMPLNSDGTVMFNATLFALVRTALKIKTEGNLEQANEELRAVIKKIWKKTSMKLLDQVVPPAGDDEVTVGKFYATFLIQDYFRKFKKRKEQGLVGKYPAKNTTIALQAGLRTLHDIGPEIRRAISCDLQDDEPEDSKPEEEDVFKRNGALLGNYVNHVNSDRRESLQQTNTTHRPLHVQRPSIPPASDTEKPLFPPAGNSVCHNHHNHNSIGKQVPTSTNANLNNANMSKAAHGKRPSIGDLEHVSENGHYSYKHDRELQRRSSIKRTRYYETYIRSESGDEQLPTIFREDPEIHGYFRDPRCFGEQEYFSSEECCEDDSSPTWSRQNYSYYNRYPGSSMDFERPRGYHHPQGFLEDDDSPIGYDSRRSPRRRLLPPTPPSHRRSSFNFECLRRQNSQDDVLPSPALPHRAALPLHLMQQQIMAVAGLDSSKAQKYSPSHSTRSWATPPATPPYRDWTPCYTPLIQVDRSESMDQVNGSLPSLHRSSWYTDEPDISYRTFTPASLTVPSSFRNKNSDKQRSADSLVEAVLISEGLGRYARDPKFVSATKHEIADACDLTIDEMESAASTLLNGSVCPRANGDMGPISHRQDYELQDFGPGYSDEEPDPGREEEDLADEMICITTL
UniProt P15381, whole entry: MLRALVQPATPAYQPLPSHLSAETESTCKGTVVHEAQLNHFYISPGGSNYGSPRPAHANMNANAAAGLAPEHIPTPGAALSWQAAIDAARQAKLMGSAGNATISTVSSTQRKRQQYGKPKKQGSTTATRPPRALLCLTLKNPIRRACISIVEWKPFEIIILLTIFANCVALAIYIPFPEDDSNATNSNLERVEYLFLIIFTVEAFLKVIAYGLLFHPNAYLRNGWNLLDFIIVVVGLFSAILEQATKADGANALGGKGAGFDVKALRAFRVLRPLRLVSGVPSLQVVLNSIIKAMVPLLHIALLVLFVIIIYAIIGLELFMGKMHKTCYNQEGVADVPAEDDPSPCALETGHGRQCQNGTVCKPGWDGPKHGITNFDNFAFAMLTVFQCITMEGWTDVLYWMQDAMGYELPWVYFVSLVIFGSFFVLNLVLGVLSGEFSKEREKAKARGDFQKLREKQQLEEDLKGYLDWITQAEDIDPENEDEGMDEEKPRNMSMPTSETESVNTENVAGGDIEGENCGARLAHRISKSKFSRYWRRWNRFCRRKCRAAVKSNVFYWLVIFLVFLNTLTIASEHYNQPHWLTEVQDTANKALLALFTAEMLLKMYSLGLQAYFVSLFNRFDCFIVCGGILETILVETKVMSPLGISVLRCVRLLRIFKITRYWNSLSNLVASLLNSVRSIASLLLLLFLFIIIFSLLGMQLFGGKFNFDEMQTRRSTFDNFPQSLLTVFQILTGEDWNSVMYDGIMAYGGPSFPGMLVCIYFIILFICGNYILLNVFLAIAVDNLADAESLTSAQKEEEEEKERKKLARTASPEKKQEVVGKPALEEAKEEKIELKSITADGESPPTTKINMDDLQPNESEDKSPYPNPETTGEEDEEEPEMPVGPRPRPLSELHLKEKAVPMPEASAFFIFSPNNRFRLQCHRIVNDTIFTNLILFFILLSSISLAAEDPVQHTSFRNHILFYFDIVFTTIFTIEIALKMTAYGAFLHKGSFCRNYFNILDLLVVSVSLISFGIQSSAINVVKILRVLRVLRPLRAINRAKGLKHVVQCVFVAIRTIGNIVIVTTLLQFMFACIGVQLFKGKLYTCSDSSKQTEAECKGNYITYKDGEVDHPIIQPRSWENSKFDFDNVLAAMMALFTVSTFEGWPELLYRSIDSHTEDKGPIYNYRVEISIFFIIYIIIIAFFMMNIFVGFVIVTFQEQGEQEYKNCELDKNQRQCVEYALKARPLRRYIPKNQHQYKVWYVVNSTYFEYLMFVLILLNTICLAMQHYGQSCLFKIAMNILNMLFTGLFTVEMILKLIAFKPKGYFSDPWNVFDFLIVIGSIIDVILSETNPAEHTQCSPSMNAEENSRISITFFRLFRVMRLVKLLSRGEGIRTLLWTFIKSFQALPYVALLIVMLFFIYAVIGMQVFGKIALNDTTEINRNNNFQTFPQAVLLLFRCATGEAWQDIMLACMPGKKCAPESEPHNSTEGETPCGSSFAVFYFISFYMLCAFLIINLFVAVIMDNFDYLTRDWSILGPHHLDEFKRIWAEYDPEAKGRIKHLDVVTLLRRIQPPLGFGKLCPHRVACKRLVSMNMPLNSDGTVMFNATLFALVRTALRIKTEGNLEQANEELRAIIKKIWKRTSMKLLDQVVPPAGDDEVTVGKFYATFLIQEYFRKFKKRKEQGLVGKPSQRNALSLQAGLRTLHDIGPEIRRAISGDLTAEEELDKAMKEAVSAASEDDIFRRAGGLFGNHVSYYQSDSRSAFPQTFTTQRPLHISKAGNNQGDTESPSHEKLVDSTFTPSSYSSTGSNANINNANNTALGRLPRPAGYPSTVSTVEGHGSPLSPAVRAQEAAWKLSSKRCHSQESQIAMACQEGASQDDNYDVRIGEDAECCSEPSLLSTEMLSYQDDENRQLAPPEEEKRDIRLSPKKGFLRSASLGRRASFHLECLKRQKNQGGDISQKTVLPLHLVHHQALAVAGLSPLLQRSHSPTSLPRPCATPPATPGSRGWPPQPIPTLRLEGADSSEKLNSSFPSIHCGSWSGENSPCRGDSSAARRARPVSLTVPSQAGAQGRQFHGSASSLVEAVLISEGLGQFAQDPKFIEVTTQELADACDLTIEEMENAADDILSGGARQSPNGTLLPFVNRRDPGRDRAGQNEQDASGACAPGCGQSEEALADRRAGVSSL
UniProt P54289, 25-956 partner limits assumed: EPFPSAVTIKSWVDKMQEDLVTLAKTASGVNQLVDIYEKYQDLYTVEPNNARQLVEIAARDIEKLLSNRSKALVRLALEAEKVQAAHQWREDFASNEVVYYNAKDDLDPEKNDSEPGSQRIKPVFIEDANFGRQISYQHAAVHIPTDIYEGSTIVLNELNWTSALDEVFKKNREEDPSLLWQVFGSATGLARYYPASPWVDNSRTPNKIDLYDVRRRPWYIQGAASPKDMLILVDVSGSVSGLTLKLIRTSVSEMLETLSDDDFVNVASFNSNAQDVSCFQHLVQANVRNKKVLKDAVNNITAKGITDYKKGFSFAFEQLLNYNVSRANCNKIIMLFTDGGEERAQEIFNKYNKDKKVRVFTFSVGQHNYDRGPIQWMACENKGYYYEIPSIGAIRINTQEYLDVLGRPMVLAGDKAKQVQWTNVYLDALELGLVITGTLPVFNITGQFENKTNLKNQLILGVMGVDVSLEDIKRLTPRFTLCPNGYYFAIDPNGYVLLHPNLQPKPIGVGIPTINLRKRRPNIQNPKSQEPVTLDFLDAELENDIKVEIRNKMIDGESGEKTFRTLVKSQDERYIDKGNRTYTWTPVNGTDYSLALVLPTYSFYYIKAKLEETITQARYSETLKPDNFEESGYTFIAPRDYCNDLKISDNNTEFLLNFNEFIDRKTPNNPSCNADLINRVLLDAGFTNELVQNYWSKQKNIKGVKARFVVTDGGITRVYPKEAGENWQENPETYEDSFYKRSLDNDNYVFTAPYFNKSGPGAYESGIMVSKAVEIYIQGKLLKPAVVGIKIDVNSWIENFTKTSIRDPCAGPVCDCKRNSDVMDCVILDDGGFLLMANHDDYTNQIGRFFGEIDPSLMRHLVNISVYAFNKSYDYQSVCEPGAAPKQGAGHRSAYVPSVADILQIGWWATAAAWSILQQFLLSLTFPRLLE
UniProt P54289, 957-1103 partner limits assumed: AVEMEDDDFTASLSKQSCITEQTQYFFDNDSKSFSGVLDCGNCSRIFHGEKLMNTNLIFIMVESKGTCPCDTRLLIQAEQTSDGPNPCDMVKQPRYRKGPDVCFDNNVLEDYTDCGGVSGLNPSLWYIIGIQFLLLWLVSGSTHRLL
UniProt P54284, whole entry partner: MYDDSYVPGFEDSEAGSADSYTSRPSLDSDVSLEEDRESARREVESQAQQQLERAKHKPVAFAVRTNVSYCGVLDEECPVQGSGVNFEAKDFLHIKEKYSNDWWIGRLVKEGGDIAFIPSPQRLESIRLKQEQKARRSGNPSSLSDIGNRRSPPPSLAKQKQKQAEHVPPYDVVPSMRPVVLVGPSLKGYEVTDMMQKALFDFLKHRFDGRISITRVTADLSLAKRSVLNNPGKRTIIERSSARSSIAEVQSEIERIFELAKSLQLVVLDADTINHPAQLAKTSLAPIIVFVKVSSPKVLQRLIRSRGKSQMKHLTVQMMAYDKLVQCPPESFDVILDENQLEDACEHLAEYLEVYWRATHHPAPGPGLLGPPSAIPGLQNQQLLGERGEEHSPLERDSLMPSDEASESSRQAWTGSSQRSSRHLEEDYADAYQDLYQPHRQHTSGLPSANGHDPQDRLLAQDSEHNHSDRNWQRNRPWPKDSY

How the values were obtained:
[1] = molecular target: Cav1.3 L-type Ca channels (Rattus norvegicus, UniProt P27732); experiment: FLIPR Fluo-8 calcium assay, Cav1.3 channel inhibition in HEK293 cells; format: cell-based
[2] = molecular target: Cav1.2 L-type Ca channels (Oryctolagus cuniculus, UniProt P15381)
[3] = read-out: IC50 (μM) Cav1.3, second library, FLIPR, HEK293, value (±SD)

| Structure (SMILES) | IC50 ([1]; read-out: IC50 (μM) Cav1.3, third library, FLIPR, HEK293, value (±SD)) [µM] | IC50 [2] [µM] | IC50 [1, 3] [µM] | selectivity for Cav1.3 over Cav1.2 ([1]; ratio of IC50 values for the two cell lines) [fold] | IC50 ([1]; read-out: IC50 with Cav1.3) [µM] |
| --- | --- | --- | --- | --- | --- |
| O=C1CC(=O)N([C@@H]2C[C@H]3CC[C@@H]2C3)C(=O)N1CCc1ccc(Cl)cc1 (relative stereo) | 2.8 | 10.9 |  |  |  |
| O=C1CC(=O)N(C2CCCCC2)C(=O)N1CCc1ccc(Cl)cc1Cl |  | 40.3 | 1.5 |  |  |
| CC(CN1C(=O)CC(=O)N(C2CCCCC2)C1=O)c1ccc(Cl)cc1 (stereo not drawn) |  | 52.9 | 1.5 |  |  |
| COc1ccc(CCN2C(=O)CC(=O)N(C3CCCCC3)C2=O)cc1 |  | 26.2 | 9.4 |  |  |
| O=C1NCC(CCc2cccc(Cl)c2)C(=O)N1C1CCCCC1 (stereo not drawn) |  |  |  | 4 | 0.15 |
| COc1ccc(CCN2C(=O)CC(=O)N(C3CCCCC3)C2=O)cc1OC |  | 75.5 | 32.5 |  |  |
| O=C1CC(=O)N(C2CCCCC2)C(=O)N1CCc1ccc([N+](=O)[O-])cc1 |  | 10.5 | 8.9 |  |  |
| O=C1CC(=O)N(C2CCCCC2)C(=O)N1CCc1cccs1 |  | 37.2 | 11.4 |  |  |
| CC(Cc1ccc(Cl)cc1)N1C(=O)CC(=O)N(C2CCCCC2)C1=O (stereo not drawn) |  | 16.8 | 2.1 |  |  |

Where two headings read alike, the source gives them in different places.
